# Measurements as given in ChEMBL document CHEMBL1125885, “Dopamine autoreceptor agonists as potential antipsychotics. 3.6-Propyl-4,5,5a,6,7,8-hexahydrothiazolo[4,5-f]quinolin-2-amine” (J Med Chem, 1991).
# By UniProt entry, the sequences of proteins in these tests, tags left out.
# UniProt P61169, whole entry: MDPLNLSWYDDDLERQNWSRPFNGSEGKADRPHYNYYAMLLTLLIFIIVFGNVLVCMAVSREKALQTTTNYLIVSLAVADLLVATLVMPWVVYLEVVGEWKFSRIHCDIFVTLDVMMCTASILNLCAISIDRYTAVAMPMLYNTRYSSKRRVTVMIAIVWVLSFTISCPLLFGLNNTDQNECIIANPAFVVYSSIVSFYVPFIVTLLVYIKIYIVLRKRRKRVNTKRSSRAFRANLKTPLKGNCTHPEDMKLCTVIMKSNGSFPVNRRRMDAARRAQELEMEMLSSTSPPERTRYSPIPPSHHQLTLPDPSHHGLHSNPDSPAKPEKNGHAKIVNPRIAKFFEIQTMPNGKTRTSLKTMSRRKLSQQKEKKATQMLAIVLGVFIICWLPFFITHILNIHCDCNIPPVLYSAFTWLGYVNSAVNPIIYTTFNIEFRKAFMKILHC
# Target: D(2) dopamine receptor (Rattus norvegicus, UniProt P61169)
# Test: Binding affinity towards dopamine receptor D2 in rat striatal membrane using [3H]spiperone
# Assay type: cell membranes, Striatum
row,SMILES,IC50 [µM]
1,CCCN1CCC=C2c3nc(N)sc3CC[C@@H]21 (stereo in doubt; (-)-6),2.24
2,CCCN1CCC=C2c3nc(N)sc3CC[C@@H]21 (stereo in doubt; (+)-6),0.86
3,CCCN1CCC=C2c3nc(N)sc3CCC21 (racemic),2.2
